# Yeast mating assay B: variants of the scFv Ab-14

Binding partner: SARS-CoV-2 spike HR2 peptide, sequence PDVDLGDISGINAS.

Ab-14 is the parent antibody, in scFv form: VH, then a (GGGGS)3 linker, then VL. The light chain is unchanged in all variants.
VH: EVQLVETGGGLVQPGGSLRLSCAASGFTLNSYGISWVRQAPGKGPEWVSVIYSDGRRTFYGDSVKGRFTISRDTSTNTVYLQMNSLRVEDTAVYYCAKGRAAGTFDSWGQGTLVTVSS
VL: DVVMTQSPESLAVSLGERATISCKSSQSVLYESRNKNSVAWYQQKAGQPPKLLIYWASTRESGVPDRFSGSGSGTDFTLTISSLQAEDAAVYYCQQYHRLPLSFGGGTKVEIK

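The starting antibody came from a phage panning campaign against this peptide. These sequences belong to a second round, designed from the earlier measurements on random variants of the parent. Group labels follow the data file (Ctrl: baseline library sampled from a position-specific scoring matrix, with some repeated check sequences; En: ensemble of fine-tuned language models; GP: Gaussian process model; GPLM: also part of the Gaussian process libraries; HC: hill climbing; Gen: genetic algorithm; Gibbs: Gibbs sampling; a sequence that several methods proposed may carry one label only). The scFvs were displayed on barcoded MATa yeast, the peptide on MATalpha yeast. Mating (16 h, 30 °C) was followed by selection of diploids and sequencing of their barcodes. Each replicate has its own calibration line, from reference interactions of the BCL2 family. The assay was run in six technical replicates.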

Each variant is given by its three heavy chain CDRs, as the data file delimits them; those of the parent are GFTLNSYGIS, VIYSDGRRTFYGDSVK, GRAAGTFDS. Numbers give log10(Kd / nM), so 0 is 1 nM and 3 is 1 µM. Smaller is tighter. Averages over replicates are reported, and they cover detected replicates only. Where no diploid with the target was found in any replicate, the entry reads "no signal": below detection, most likely a poor binder, though not proof of it.

mean, log10 nM	seen in	empty controls	CDR-H1	CDR-H2	CDR-H3	group
-1.01	6 of 6	0 of 18	GFDLNEYGIS	VIYADGMRTFYADSVK	GKIAGTFNV	En_HC
0.74	6 of 6	0 of 18	GFTLNDYGIS	VIYSDGRRTFYTDSVK	GRFAGTFDS	GPLM_HC
no signal	0 of 6	0 of 18	GFTLNDYGIS	VIYSDGRRTFYGDSVK	GRAAGTFIT	GPLM_HC
0.10	6 of 6	0 of 18	GFDLNEYGIS	VIYADGRRTAYADSVK	GEVAGTFDV	En_Gen
-0.20	6 of 6	2 of 18	GFDLNSYGIS	VIYSDGRRTFYADSVK	GKTAGTFDA	GP_Gibbs
-0.59	6 of 6	0 of 18	GFDLNEYGIS	VIYADGMRTAYADSVK	GNLAGTFDI	En_Gen
3.66	1 of 6	1 of 18	GFDLNEYGVS	VIYADGQRTQYTDKVK	GSESASITN	En_Gibbs
1.05	5 of 6	0 of 18	GFSLNSYGIS	VIYSDGRRTFYVDSVK	GKAAGTFDS	GPLM_Gen
-0.37	6 of 6	0 of 18	GFSLNDYGIS	VIYSDGRRTFYGDSVK	GREAGTFDS	GPLM_Gen
no signal	0 of 6	0 of 18	GFDLNSYGIS	VIYSDGRRTFYGDSVK	SRCAGTFDD	Ctrl
0.05	6 of 6	0 of 18	GFSLNEYGIS	VIYSDGRRTFYGDSVK	GKAAGTFDK	GPLM_Gen
0.39	6 of 6	0 of 18	GFSLNSYGIS	VIYSDGRRTFYKDSVK	GRVAGTFDS	GPLM_Gen
-0.15	6 of 6	0 of 18	GFSLNEYGIS	VIYSDGRRTFYGDSVK	GQAAGTFDT	GPLM_Gen
-0.16	6 of 6	0 of 18	GFDLDEYGIS	VIYADGMRTAYTDSVK	GSNAGTFDV	En_Gen
-0.35	6 of 6	1 of 18	GFGLNEYGIS	VIYADGRRTFYGDSVK	GRAAGTFDS	GP_HC
no signal	0 of 6	0 of 18	GFEPNSYGIS	VIYSDGRRTFYGDSVK	GREAGTSHS	Ctrl
no signal	0 of 6	0 of 18	GFNLDEYGIS	VIYADGQRTAYAKNVK	GTFGMKRVV	En_Gibbs
1.38	5 of 6	0 of 18	GFDLDEYGIS	VIYADGQRTFYADSVK	GTLAGTFDA	En_HC
no signal	0 of 6	0 of 18	GFTLNSYGIS	VDYSDGRRTFYYDSVK	GRAAGTFLL	Ctrl
no signal	0 of 6	0 of 18	GFEVEEYGIS	VIYADGRRVAYAKDVK	GMNFDGIVV	En_Gibbs
-0.19	6 of 6	0 of 18	GFDLNEYGIS	VIYADGMRTAYADSVK	GNIAGTFDT	En_Gen
0.20	6 of 6	0 of 18	GFDLDEYGIS	VIYADGSRTAYADKVK	GNVAGTFDV	En_Gen
0.13	6 of 6	1 of 18	GFTLNEYGIS	VIYSDGRRTMYGDSVK	GRNAGTFDS	GPLM_Gen
1.18	6 of 6	0 of 18	GFTLNEYGIS	VIYSDGKRTFYIDSVK	GRAAGTFDS	GPLM_HC
-0.53	6 of 6	1 of 18	GFDLNEYGIS	VIYADGRRTAYSDSVK	GEVAGTFVV	En_HC
-0.21	6 of 6	0 of 18	GFDLDEYGIS	VIYADGKRTAYADSVK	GENAGTFDT	En_Gen
0.14	6 of 6	0 of 18	GFSLNSYGIS	VIYSDGRRTFYIDSVK	GTAAGTFDK	GPLM_Gibbs
1.90	1 of 6	0 of 18	GFTLNDYGIS	VIYSDGRRTFYIDAVK	GNAAGTFDS	GP_HC
2.00	1 of 6	1 of 18	GITLNSYGIS	VIYSKGRRTMYIDSVK	GQAAGTFDL	Ctrl
-0.33	6 of 6	0 of 18	GFDLNEYGIS	VIYADGRRTFYADSVK	GTAAGTFDL	En_HC
-0.77	6 of 6	0 of 18	GFDLNEYGIS	VIYADGRRTAYIDSVK	GENAGTFDK	En_HC
-0.55	6 of 6	0 of 18	GFDLNEYGIS	VIYADGVRTVYADSVK	GNVAGTFDT	En_Gen
2.13	6 of 6	1 of 18	GFELNEYGIS	VIYSDGRRTFYGDSVK	GRTAGTFDL	GP_Gen
-0.22	6 of 6	1 of 18	GFNLDEYGIS	VIYADGMRTAYADSVK	GNQAGTFDV	En_Gen
no signal	0 of 6	0 of 18	GFALNSYPIS	VIYSDGRRTFYGDSVK	GRAAGTFDS	Ctrl
1.25	6 of 6	1 of 18	GNTLNEYGIS	VIYSDGRRTFYGDSVK	GRTAGTFDG	GP_HC
no signal	0 of 6	0 of 18	GFGLDEYGIS	VIYADGFRAYYHDNVK	GFNSGVDIL	En_Gibbs
-0.59	6 of 6	0 of 18	GFDLNEYGIS	VIYADGQRTAYADSVK	GKAAGTFDT	En_HC
1.45	1 of 6	0 of 18	GFNLNSYGIS	VIYSDGRRTFYIDSVK	GHAAGTFDS	GPLM_Gibbs
0.36	6 of 6	0 of 18	GFNLNSYGIS	VIYSDGRRTFYADSVK	GRVAGTFDS	GPLM_Gen
0.43	6 of 6	0 of 18	GFSLNSYGIS	VIYSDGRRTFYADSVK	GRIAGTFDS	GPLM_Gen
1.40	2 of 6	0 of 18	GFHLNSYGIS	VIYSDGRRTFYVDSVK	GEAAGTFDS	GP_Gen
-0.32	6 of 6	0 of 18	GFDLNEYGIS	VIYADGVRTSYADDVK	GQNAGTFDV	En_Gen
1.68	1 of 6	0 of 18	GFQLNSYGIS	VIYSDGRRTFYIDSVK	GRQAGTFDS	GPLM_Gibbs
-0.09	6 of 6	0 of 18	GFDLNEYGIS	VIYADGMRTAYADSVK	GEIAGTFDT	En_Gen
1.77	6 of 6	0 of 18	GFTNNEYGIS	VIYSDGRRTAYIDSVK	GRAAGTFDS	Ctrl
0.27	6 of 6	0 of 18	GFDLDEYGIS	VIYADGRRTAYADNVK	GNVAGTFDL	En_Gen
2.00	2 of 6	0 of 18	GFTRNSYGIS	VIYSDGRRTFYSDSVR	GRAAGTFDS	Ctrl
0.79	4 of 6	0 of 18	GFTLNEYGIS	VIYSDGRRTFYDDSVK	GRYAGTFDS	GP_HC
3.18	1 of 6	0 of 18	GFQLDEYGIS	VIYADGQRTAYSKNVK	GYIDFKRID	En_Gibbs
2.27	1 of 6	1 of 18	GFGLDEYGIS	VIYADGKRAYYHDNVK	GFNYGVDIL	En_Gibbs
0.24	6 of 6	0 of 18	GFTLNEYGIS	VIYSDGRRTFYGDAVK	GRTAGTFDK	GP_Gen
1.58	3 of 6	0 of 18	GFTLNDYGIS	VIYSDGRRTFYEDSVK	GRAAGSFDS	Ctrl
no signal	0 of 6	0 of 18	GFNLDEYGIS	VIYADGHRTQYAQSVK	GMNNGYIAG	En_Gibbs
2.24	1 of 6	0 of 18	GFTLNMYGIS	VIYSDGRRTFYGDSVK	GRAAGTFRS	Ctrl
no signal	0 of 6	0 of 18	GFELNSYGIS	VIYSDGRRTFYGDSVK	GMAAHTFDS	Ctrl
0.20	6 of 6	0 of 18	GFDLNEYGIS	VIYADGMRTFYTDSVK	GEFAGTFDS	En_HC
-0.39	6 of 6	0 of 18	GFDLNEYGIS	VIYADGVRTAYADSVK	GKVAGTFDS	En_HC
no signal	0 of 6	0 of 18	GFTLNSYGIS	VIYEDGRRTFYHDSVK	GRAAGTFDS	Ctrl

The opening 6 entries, copied out:

CDR-H1	CDR-H2	CDR-H3	group	mean, log10 nM	seen in	empty controls
GFDLNEYGIS	VIYADGMRTFYADSVK	GKIAGTFNV	En_HC	-1.01	6 of 6	0 of 18
GFTLNDYGIS	VIYSDGRRTFYTDSVK	GRFAGTFDS	GPLM_HC	0.74	6 of 6	0 of 18
GFTLNDYGIS	VIYSDGRRTFYGDSVK	GRAAGTFIT	GPLM_HC	no signal	0 of 6	0 of 18
GFDLNEYGIS	VIYADGRRTAYADSVK	GEVAGTFDV	En_Gen	0.10	6 of 6	0 of 18
GFDLNSYGIS	VIYSDGRRTFYADSVK	GKTAGTFDA	GP_Gibbs	-0.20	6 of 6	2 of 18
GFDLNEYGIS	VIYADGMRTAYADSVK	GNLAGTFDI	En_Gen	-0.59	6 of 6	0 of 18

Of ten entries with the parent sequence, four were seen in most replicates (averages 0.34 to 2.37), three in one and three in none, so single entries are noisy. Values of this round are not directly comparable with the first-round values of the same sequences. Nonspecific signal, from three strains lacking the peptide, appeared in 1% of pairings of all heavy chain designs, centred on 2.08 (5% of these signals below 0.84); values are not corrected for it. Also given: how often the same scFv was detected with the empty control strains. In the paper, a design with two or fewer of six values counts as a poor binder.

Data: MIT Lincoln Laboratory AlphaSeq set, Li et al. 2023, doi:10.1038/s41467-023-39022-2, as distributed in FLAb.